Source: the supplement of paper PMC11403291

Protein sequences, listed by entry. Tags and fused reporters are not part of them. Lines headed by an entry give the natural chain unless they say otherwise; changes in a name come on top.
UniProt O96013: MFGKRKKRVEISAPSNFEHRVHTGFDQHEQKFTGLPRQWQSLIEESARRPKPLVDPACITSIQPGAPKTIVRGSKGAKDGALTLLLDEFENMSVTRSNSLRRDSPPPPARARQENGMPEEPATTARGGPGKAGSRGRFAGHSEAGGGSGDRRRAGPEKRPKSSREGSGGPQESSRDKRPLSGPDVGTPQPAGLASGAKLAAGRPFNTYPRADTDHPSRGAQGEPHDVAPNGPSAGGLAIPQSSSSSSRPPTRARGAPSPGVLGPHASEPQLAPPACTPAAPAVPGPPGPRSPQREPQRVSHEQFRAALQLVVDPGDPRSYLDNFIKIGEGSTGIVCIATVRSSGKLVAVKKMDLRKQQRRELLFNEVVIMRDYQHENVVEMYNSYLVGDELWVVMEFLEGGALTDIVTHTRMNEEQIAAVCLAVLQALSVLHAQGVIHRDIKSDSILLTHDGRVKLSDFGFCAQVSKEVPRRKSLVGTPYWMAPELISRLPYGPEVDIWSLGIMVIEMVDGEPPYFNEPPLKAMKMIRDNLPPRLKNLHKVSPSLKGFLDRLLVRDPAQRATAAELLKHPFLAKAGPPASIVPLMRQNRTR
UniProt P29317, whole entry: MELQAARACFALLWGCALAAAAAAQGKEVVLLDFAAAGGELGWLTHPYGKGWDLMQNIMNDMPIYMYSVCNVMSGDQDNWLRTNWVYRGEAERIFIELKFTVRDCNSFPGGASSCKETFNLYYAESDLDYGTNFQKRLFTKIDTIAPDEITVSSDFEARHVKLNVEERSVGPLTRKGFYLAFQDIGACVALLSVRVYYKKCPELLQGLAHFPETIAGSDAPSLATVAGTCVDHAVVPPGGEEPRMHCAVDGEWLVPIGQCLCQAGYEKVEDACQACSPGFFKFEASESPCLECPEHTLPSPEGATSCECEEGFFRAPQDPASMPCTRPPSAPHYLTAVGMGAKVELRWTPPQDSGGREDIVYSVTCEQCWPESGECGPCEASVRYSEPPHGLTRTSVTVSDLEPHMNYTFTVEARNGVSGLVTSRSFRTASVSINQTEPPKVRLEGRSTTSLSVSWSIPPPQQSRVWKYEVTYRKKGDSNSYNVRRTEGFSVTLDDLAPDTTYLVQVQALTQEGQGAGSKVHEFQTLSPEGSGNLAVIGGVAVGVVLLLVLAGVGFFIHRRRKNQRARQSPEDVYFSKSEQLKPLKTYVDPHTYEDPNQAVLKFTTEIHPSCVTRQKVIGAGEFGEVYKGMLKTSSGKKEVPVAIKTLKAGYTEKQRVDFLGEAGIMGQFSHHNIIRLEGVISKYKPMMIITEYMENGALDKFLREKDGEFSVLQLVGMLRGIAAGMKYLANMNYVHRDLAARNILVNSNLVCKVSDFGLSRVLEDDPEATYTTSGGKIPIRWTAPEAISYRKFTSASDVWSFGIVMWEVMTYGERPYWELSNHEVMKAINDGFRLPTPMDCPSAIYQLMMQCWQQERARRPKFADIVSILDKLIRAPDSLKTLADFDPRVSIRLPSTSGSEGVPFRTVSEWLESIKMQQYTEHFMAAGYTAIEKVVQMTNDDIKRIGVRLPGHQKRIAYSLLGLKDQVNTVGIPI

Legend:
Assay in all cases: apparent dissociation constant pKd app (kinobead competition) (-log10(M)); higher = stronger binding
[1] = molecular target: T1, EPHA3 (UniProt P29320)
T1 sequence (whole entry): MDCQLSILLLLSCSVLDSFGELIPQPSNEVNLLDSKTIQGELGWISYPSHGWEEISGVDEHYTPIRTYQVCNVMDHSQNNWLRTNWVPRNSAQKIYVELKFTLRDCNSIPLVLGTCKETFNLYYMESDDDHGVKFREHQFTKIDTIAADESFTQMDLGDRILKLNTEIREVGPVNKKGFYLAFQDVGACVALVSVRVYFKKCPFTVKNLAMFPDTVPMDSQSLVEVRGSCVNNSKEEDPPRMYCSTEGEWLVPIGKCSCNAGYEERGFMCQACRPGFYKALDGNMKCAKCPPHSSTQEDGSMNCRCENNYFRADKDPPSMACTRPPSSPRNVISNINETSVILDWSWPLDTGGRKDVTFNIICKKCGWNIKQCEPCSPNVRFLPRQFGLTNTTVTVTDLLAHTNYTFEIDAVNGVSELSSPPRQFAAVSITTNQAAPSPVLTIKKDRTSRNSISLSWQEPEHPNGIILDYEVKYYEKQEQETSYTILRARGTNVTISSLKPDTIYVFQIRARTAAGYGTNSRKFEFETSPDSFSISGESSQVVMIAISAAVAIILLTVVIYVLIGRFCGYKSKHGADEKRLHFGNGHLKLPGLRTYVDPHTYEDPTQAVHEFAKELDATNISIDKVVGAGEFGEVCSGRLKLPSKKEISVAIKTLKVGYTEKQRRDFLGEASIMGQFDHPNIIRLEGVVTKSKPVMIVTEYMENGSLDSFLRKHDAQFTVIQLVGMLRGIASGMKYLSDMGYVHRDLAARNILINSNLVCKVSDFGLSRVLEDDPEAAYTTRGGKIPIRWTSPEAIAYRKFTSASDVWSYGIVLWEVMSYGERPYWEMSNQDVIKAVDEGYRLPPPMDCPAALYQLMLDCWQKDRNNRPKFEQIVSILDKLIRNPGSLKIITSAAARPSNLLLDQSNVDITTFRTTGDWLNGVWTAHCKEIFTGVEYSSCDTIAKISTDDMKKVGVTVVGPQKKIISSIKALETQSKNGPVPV

[2] = molecular target: T2, ADRBK2 (UniProt P35626)
T2 sequence (whole entry): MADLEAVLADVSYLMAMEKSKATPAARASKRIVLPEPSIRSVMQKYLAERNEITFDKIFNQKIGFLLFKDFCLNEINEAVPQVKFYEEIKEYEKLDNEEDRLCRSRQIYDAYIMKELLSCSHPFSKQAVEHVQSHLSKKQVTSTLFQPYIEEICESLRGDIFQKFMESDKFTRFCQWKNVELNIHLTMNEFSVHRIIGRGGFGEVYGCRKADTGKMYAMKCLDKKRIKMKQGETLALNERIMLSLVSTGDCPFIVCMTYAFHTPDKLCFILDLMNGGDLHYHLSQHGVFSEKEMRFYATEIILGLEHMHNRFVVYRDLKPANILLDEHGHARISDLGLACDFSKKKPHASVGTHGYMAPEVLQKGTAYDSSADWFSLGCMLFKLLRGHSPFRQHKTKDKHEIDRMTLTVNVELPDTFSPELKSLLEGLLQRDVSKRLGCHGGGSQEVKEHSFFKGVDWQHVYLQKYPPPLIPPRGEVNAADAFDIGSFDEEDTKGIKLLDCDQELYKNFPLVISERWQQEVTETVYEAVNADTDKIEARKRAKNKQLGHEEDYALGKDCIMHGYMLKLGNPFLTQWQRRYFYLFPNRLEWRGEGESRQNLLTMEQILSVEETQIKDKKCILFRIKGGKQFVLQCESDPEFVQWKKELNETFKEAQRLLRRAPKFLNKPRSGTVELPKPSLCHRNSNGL

[3] = molecular target: PAK4 (UniProt O96013)
[4] = molecular target: T3, GSG2 (UniProt Q8TF76)
T3 sequence (whole entry): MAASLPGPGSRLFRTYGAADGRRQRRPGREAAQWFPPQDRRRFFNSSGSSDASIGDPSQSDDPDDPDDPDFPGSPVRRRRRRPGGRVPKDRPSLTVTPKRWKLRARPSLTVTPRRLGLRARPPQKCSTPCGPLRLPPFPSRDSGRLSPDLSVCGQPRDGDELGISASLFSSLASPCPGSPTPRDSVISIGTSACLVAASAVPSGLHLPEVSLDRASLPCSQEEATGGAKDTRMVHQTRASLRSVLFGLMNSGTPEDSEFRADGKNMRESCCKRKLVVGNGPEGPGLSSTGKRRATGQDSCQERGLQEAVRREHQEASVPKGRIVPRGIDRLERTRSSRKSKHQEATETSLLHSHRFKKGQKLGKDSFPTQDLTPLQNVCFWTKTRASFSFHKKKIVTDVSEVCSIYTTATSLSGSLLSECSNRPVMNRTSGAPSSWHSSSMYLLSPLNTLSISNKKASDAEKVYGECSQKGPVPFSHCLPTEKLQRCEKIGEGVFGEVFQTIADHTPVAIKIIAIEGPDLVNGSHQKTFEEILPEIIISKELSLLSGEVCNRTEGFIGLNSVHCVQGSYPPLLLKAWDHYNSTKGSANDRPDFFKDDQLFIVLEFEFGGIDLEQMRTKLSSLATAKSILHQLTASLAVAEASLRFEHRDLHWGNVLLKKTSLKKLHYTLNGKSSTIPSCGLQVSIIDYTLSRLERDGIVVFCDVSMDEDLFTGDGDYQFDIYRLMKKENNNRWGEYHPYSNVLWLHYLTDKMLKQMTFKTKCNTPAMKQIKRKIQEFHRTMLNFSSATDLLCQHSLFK

[5] = molecular target: EPHA2 (UniProt P29317)

SMILES	apparent dissociation constant pKd app (-log10) [1]	apparent dissociation constant pKd app (-log10) [2]	apparent dissociation constant pKd app (-log10) [3]	apparent dissociation constant pKd app (-log10) [4]	apparent dissociation constant pKd app (-log10) [5]
NC(=O)c1cccc2cn(-c3ccc([C@@H]4CCCNC4)cc3)nc12 [Niraparib]	< 4.5	< 4.6	< 4.7	< 4.6	< 4.6
Cn1ncnc1[C@H]1c2n[nH]c(=O)c3cc(F)cc(c23)N[C@@H]1c1ccc(F)cc1 [Talazoparib]	< 4.5	< 4.6	< 4.7	< 4.6	< 4.6
O=C(c1cc(Cc2n[nH]c(=O)c3ccccc23)ccc1F)N1CCN(C(=O)C2CC2)CC1 [Olaparib]	< 4.5	< 4.6	< 4.7	< 4.6	< 4.6
